Test results published in publication PMC9795464 (JACS Au, 2022).

By UniProt entry, the sequences of proteins in these tests, tags left out. Where a name states a change or a piece, a line headed by the entry shows the natural chain unless it says otherwise.
UniProt Q96RI1: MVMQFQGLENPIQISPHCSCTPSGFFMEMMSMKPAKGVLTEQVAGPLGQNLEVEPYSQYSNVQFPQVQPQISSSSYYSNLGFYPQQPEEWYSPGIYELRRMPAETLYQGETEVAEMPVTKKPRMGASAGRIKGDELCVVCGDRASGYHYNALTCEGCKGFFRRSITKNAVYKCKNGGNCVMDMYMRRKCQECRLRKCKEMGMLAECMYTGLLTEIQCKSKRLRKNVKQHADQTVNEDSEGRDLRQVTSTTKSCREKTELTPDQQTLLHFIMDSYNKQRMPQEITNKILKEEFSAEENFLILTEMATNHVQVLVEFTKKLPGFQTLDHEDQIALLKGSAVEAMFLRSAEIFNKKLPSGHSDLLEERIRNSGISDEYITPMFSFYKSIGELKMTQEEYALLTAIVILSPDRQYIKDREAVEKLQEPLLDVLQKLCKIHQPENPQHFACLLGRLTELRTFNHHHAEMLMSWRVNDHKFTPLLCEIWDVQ

Molecular target: T1, FXR (Homo sapiens, UniProt Q96RI1)
T1 sequence (Q96RI1 1-472 isoform Q96RI1-2): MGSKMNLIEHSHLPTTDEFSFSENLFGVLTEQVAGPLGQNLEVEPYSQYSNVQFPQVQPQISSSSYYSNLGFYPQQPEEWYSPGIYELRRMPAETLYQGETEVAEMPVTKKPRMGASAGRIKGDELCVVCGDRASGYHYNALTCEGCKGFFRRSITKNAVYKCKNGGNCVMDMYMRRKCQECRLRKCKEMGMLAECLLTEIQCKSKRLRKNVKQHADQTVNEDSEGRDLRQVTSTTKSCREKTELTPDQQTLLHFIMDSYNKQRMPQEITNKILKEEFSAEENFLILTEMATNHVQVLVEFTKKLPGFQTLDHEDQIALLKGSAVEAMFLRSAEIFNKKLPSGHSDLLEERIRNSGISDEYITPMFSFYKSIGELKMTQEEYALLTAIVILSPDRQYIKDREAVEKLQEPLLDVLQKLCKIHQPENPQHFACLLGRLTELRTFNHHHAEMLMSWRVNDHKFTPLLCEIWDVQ
Assay type: cell-based

In the case of Guggulsterone E&Z [GS], the “effect on OCA- or FA-elevated FXR transcriptional activity” value is reported as “reversed”.
